The subject of assay [1] is MV4-11 cell. The experiment in a line: MV4-11 cell proliferation assay (CellTiter-Glo). Particulars: read-out: IC50 inhibiting MV4-11 cell proliferation, MV4-11 cells, 72 hours. Background: In ATP-based viability assays light output follows the ATP content of the culture.
Assay [2] addresses FLT3 (Homo sapiens (Human), UniProt P36888). The experiment in a line: FLT3 kinase inhibition assay (Caliper mobility shift assay). The format is biochemical. Particulars: read-out: IC50 inhibiting the FLT3 kinase; 0.9 nM purified FLT3, 97 uM ATP, 28° C., 60 min.

The chains behind the UniProt entries cited, without tags or fusion partners. Residues count along the entry.
UniProt P36888, 27-993 limits assumed: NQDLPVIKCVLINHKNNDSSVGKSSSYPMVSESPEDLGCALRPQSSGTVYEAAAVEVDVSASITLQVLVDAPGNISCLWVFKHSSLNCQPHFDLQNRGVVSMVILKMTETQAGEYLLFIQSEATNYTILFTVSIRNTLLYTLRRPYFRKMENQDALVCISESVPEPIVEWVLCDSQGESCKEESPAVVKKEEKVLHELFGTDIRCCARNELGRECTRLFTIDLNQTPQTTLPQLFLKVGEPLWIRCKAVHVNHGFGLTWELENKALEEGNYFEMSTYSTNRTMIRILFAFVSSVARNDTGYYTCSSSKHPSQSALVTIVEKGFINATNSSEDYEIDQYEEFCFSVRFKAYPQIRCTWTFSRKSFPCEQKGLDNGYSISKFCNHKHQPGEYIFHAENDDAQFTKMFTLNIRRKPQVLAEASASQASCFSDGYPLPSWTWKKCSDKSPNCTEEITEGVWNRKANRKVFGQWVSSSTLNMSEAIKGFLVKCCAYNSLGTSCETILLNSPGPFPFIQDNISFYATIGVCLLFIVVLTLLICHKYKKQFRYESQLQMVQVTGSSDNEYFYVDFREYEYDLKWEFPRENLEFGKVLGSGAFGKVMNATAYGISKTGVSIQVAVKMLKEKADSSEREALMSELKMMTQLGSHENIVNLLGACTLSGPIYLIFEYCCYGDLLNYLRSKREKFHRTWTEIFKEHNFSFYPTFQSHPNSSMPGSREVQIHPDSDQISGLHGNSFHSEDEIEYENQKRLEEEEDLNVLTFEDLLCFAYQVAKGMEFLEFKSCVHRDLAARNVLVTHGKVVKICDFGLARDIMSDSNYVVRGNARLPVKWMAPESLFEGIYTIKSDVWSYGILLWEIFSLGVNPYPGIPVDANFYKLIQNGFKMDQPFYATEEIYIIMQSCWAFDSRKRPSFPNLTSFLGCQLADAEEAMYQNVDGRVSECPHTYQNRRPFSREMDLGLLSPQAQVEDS

Turning to `CCNC1(COc2ccc3c(n2)sc2nc(-c4ccc(NC(=O)Nc5cc(C(C)(C)C)on5)cc4)cn23)CC1`, in assay [1], the IC50 is 0.09 nM. Consider `CN1CCN(CCOc2ccc3c(n2)sc2nc(-c4ccc(NC(=O)Nc5cc(C(C)(C)C)on5)cc4)cn23)CC1`, for which the IC50 in assay [1] worked out at 0.4 nM; in assay [2] it was 33 nM.

Values taken from patent US9216997B2, “Tri-heterocyclic derivatives, preparation process and uses thereof” (SHANGHAI DE NOVO PHARMATECH CO LTD., priority 2011, dated 2015).
